Data on 107 molecules can be found in PubChem BioAssay AID588819 (The Scripps Research Institute Molecular Screening Center, 2011).

By UniProt entry, the sequences of proteins in these tests, tags left out.
UniProt P11229, whole entry: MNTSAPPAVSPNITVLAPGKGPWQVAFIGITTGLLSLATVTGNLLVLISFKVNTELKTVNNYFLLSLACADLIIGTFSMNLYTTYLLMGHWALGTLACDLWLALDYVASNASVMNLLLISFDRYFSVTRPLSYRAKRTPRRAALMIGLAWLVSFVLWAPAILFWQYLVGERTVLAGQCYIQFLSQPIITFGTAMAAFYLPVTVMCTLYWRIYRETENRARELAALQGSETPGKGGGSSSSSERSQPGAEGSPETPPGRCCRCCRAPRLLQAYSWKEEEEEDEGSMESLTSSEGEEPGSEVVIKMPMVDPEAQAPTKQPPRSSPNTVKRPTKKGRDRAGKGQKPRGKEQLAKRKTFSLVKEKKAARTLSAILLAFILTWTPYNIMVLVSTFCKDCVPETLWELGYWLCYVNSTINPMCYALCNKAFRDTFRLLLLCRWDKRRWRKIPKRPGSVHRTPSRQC

The entries are a selection whose mix differs from that of the whole data set. Calls of active or inactive are those of the source. Cut-off read from the data, not from the text of the source: active = activation above about 19% (passing the limit was not always enough); inactive = the rest.

The test has as its target Muscarinic acetylcholine receptor M1 (Homo sapiens) (UniProt P11229). The test is described as follows: human M1 muscarinic receptor positive allosteric modulators, primary screen, CHO-K1 cells, Fluo-8 calcium fluorescence, 1536-well (AID 588819). Conditions: CHO-K1 hM1, Fluo-8 calcium fluorescence, ACh EC20; at 3 µM; hits give high values; 0% = ACh EC20, 100% = maximal ACh.
For the molecule `CCC(c1nnnn1C1CCCCC1)N1CCC(n2c(=O)[nH]c3ccccc32)CC1` (configuration not stated), the activation is inactive: 2.98%. To `CC(=O)N(c1ccccc1)C1CCNCC1` belongs inactive: 7.27%; to `COc1cccc(C(c2nnnn2C2CCCCC2)N2CCC(n3c(=O)[nH]c4ccccc43)CC2)c1OC` (configuration not stated), inactive: -9.71%; to `O=c1[nH]c2ccccc2n1C1CCN(C(c2ccnc3ccccc23)c2nnnn2C2CCCCC2)CC1` (configuration not stated), inactive: -1.04%. To `COc1cc(OC)cc(C(=O)NCC2(N3CCCCC3)CCCCC2)c1` belongs inactive: 8.49%. Regarding `Fc1ccccc1NC1CCN(Cc2ccccc2)CC1`, the activation is inactive: -0.94%.

Consider `Cc1ccc(C(=O)NCC2(N3CCCCC3)CCCCC2)o1`, for which the activation was inactive: 6.64%.

On to `Cc1ccc(NC2(C#N)CCN(Cc3ccccc3)CC2)cc1`, for which the activation was inactive: 6.78%.

Take `CC(C)(C)n1nnnc1C(c1ccnc2ccccc12)N1CCC(n2c(=O)[nH]c3ccccc32)CC1` (configuration not stated): the activation was inactive: 16.6%. To `CCN1CCC(Nc2cccc(F)c2)CC1` belongs inactive: -4.34%; to `COc1ccc(C(c2nnnn2C2CCCCC2)N2CCC(n3c(=O)[nH]c4ccccc43)CC2)cc1` (configuration not stated), inactive: 1.92%. To `Cc1ccccc1NC1(C#N)CCN(Cc2ccccc2)CC1` belongs inactive: -1.1%; to `Cn1c(=O)[nH]cc(N(CCCl)CCCl)c1=O`, inactive: -9.11%; to `CN(C)c1ccc(C(=O)NCC2(N3CCCCC3)CCCCC2)cc1`, inactive: 14.7%. To `O=C(NCC1(N2CCCCC2)CCCCC1)c1ccco1` belongs inactive: 10.8%; to `CN1CCC(Nc2ccc(F)c(Cl)c2)CC1`, inactive: 3.97%. For the molecule `CCOc1ncccc1C(=O)NCC1(N2CCOCC2)CCCCC1`, the activation was inactive: -6.42%. As for `O=C(O)C1(Nc2ccccc2)CCN(Cc2ccccc2)CC1`, the activation is inactive: 20.7%. With `CC(C)(C)OC(=O)N1CCC(Nc2ccccc2)CC1` the figure was inactive: 5.55%.

Turning to `CCCOc1ccc(C(=O)NCC2(N(C)C)CCCCC2)cc1`, the activation was inactive: -8.44%.

As for `O=c1[nH]c2ccccc2n1C1CCN(C(c2cc3ccccc3o2)c2nnnn2C2CCCC2)CC1` (configuration not stated), the activation was inactive: -0.98%. To `COc1cccc(C(=O)N(c2cc(C)cc(C)c2)C2CCN(C(=O)OC(C)(C)C)CC2)c1` belongs inactive: -7.26%; to `COc1cccc(C(c2nnnn2C2CCCC2)N2CCC(n3c(=O)[nH]c4ccccc43)CC2)c1OC` (configuration not stated), inactive: -2.83%; to `COc1cc(OC)cc(C(=O)NCC2(N3CCOCC3)CCCCC2)c1`, inactive: 11.4%.

For `CCC(CO)(C(=O)OC1CN2CCC1CC2)c1ccccc1` (configuration not stated), the activation was inactive: -23.8%. With `CN1CCC(Nc2ccc(Cl)cc2)CC1` the figure was inactive: 12.3%; with `COc1cc(C(=O)NCC2(N3CCOCC3)CCCCC2)cc(OC)c1C`, inactive: 12.1%. To `CCCCn1nnnc1C(c1ccccc1)N1CCC(n2c(=O)[nH]c3ccccc32)CC1` (configuration not stated) belongs inactive: -13.4%; to `O=C(NCC1(N2CCOCC2)CCCCC1)c1cc(Br)ccc1Cl`, inactive: 4.74%. With `O=c1[nH]c2ccccc2n1C1CCN(C(c2cccs2)c2nnnn2C2CCCCC2)CC1` (configuration not stated) the figure was inactive: 0.75%; with `O=c1[nH]c2ccccc2n1C1CCN(C(c2ccnc3ccccc23)c2nnnn2C2CCCC2)CC1` (configuration not stated), inactive: -14.3%; with `COc1ccc(C(=O)NCC2(N3CCOCC3)CCCCC2)cc1OC`, inactive: 10%. As for `COc1cccc(C(c2nnnn2C(C)(C)C)N2CCC(n3c(=O)[nH]c4ccccc43)CC2)c1OC` (configuration not stated), the activation was inactive: -3.34%.

Turning to `CCOC(=O)N1CCC(Nc2ccc(C)cc2)CC1`, the activation was inactive: 9.72%. With `N/C(=N\O)c1c(N)no[n+]1[O-]` the figure was inactive: 1.8%; with `O=c1[nH]c2ccccc2n1C1CCN(C(c2cccs2)c2nnnn2C2CCCC2)CC1` (configuration not stated), inactive: -2.76%; with `O=C(OC1CN2CCC1CC2)C1c2ccccc2C=Cc2ccccc21` (configuration not stated), inactive: -25.7%.

For the molecule `CCCCn1nnnc1C(c1cccc(OC)c1OC)N1CCC(n2c(=O)[nH]c3ccccc32)CC1` (configuration not stated), the activation was inactive: -14.1%. In the case of `N#Cc1ccc(C(=O)NCC2(N3CCCCC3)CCCCC2)cc1`, the activation was inactive: 4.76%. With `CC(C)(C)OC(=O)N1CCC(N(C(=O)c2ccccc2)c2ccc(Cl)cc2)CC1` the figure was inactive: -0.44%; with `CN(C)C1(CNC(=O)c2cccc(C#N)c2)CCCCC1`, inactive: 10.4%.

Consider `Cc1cc(N(CCCl)CCCl)ccc1C=O`, for which the activation was inactive: 7.37%. With `CCCN1CCC(Nc2cc(OC)cc(OC)c2)CC1` the figure was inactive: 14.1%; with `O=c1[nH]c2ccccc2n1C1CCN(C(c2ccccc2)c2nnnn2C2CCCC2)CC1` (configuration not stated), inactive: -9.31%; with `c1ccc(CN2CCC(Nc3ccccc3)CC2)cc1`, inactive: -2.19%.

For `CC(C)(C)n1nnnc1C(c1cccc2ccccc12)N1CCC(n2c(=O)[nH]c3ccccc32)CC1` (configuration not stated), the activation was inactive: 7.17%. With `O=C(NCC1(N2CCCCC2)CCCCC1)c1ccc(OC(F)F)cc1` the figure was inactive: 16.9%; with `CC(C)(C)n1nnnc1C(c1ccccc1OC(F)(F)F)N1CCC(n2c(=O)[nH]c3ccccc32)CC1` (configuration not stated), inactive: 3.64%. To `N#CC1(Nc2ccccc2)CCN(CCc2ccccc2)CC1` belongs inactive: 12.7%; to `O=c1[nH]c2ccccc2n1C1CCN(C(c2ccccc2OC(F)(F)F)c2nnnn2C2CCCC2)CC1` (configuration not stated), inactive: 2.89%.

Turning to `CCN1CCC(Nc2ccc(Cl)cc2)CC1`, the activation was inactive: -1.65%. With `CSc1ccc(C(=O)NCC2(N3CCOCC3)CCCCC2)cc1` the figure was inactive: 5.12%; with `O=C(NCC1(N2CCCCC2)CCCCC1)c1cccc([N+](=O)[O-])c1`, inactive: 6.83%. With `O=C(NCC1(N2CCCCC2)CCCCC1)c1cccc(C(F)(F)F)c1` the figure was inactive: 6.85%; with `O=C(NCC1(N2CCOCC2)CCCCC1)c1cc(=O)[nH]c2ccccc12`, inactive: 5.88%; with `COc1cc(C(=O)NCC2(N3CCCCC3)CCCCC2)ccc1OC(F)F`, inactive: -16.1%. To `CCCCn1nnnc1C(c1cccc2ccccc12)N1CCC(n2c(=O)[nH]c3ccccc32)CC1` (configuration not stated) belongs inactive: 8.82%; to `CC(C)c1ccc(C(=O)NCC2(N3CCOCC3)CCCCC2)cc1`, inactive: 4.18%; to `COc1ccc(NC2CCN(C(=O)OC(C)(C)C)CC2)cc1`, inactive: 2.58%. As to `CN1CCN(CCOC(=O)C(O)(c2ccccc2)c2ccccc2)CC1`, the activation is inactive: -24%.

`CC(C)c1ccc(NC2CCN(C(=O)OC(C)(C)C)CC2)cc1`: the activation was inactive: 0.05%. To `CCCCn1nnnc1C(c1ccccc1OC(F)(F)F)N1CCC(n2c(=O)[nH]c3ccccc32)CC1` (configuration not stated) belongs inactive: 7.27%; to `CN(C)c1cccc(C(=O)NCC2(N3CCCCC3)CCCCC2)c1`, inactive: -1.15%; to `COc1ccc(CN(CCCl)CCCl)cc1Cl`, inactive: 11.2%. With `CCC(c1nnnn1C(C)(C)C)N1CCC(n2c(=O)[nH]c3ccccc32)CC1` (configuration not stated) the figure was inactive: 2.19%; with `O=C(NCC1(N2CCOCC2)CCCCC1)c1cc(F)c(F)cc1Cl`, inactive: 8.31%.

In the case of `COc1cc(OC)c(C(=O)NCC2(N(C)C)CCCCC2)cc1OC`, the activation was inactive: 15.2%.

In the case of `CCCCn1nnnc1C(c1ccnc2ccccc12)N1CCC(n2c(=O)[nH]c3ccccc32)CC1` (configuration not stated), the activation was inactive: -19.4%. With `O=C(NCC1(N2CCCCC2)CCCCC1)c1cncc(Br)c1` the figure was inactive: 4.86%. To `CN1CCC(Nc2cccc(F)c2)CC1` belongs inactive: -2.22%; to `COc1ccc(C(c2nnnn2C2CCCC2)N2CCC(n3c(=O)[nH]c4ccccc43)CC2)cc1` (configuration not stated), inactive: -1.19%.

`CCCOc1ccc(C(=O)NCC2(N(C)C)CCCCC2)cc1OC`: the activation is inactive: 3.22%.

Consider `Cc1ccc(C(=O)NCC2(N(C)C)CCCCC2)o1`, for which the activation was inactive: 3.86%.

Regarding `CCC(c1nnnn1C1CCCC1)N1CCC(n2c(=O)[nH]c3ccccc32)CC1` (configuration not stated), the activation was inactive: 2.13%. With `CC(C)(C)OC(=O)N1CCC(N(C(=O)c2ccccc2)c2ccc(F)cc2)CC1` the figure was inactive: 6.1%; with `COc1ccc(C(=O)NCC2(N3CCCCC3)CCCCC2)c(OC)c1OC`, inactive: 3.59%; with `COc1ccc(C(=O)NCC2(N3CCCCC3)CCCCC2)cc1`, inactive: 3.68%. With `CCCCn1nnnc1C(c1cccs1)N1CCC(n2c(=O)[nH]c3ccccc32)CC1` (configuration not stated) the figure was inactive: -2.62%; with `O=C(NCC1(N2CCCCC2)CCCCC1)c1cccs1`, inactive: 11.8%.

Regarding `CCCCn1nnnc1C(CC)N1CCC(n2c(=O)[nH]c3ccccc32)CC1` (configuration not stated), the activation was inactive: -0.04%.

For `O=C(NCC1(N2CCCCC2)CCCCC1)c1ccc(=O)[nH]c1`, the activation was inactive: 0.08%. Take `Cc1cccc(NC2(C#N)CCN(Cc3ccccc3)CC2)c1`: the activation was inactive: 4.53%. With `CSc1ccccc1C(=O)NCC1(N2CCCCC2)CCCCC1` the figure was inactive: 8.23%; with `Cc1cc(C)cc(N(C(=O)c2ccccc2)C2CCN(C(=O)OC(C)(C)C)CC2)c1`, inactive: 11.4%; with `O=c1[nH]c2ccccc2n1C1CCN(C(c2ccccc2OC(F)(F)F)c2nnnn2C2CCCCC2)CC1` (configuration not stated), inactive: -1.07%. With `O=C(NCC1(N2CCCCC2)CCCCC1)c1ccc(Cl)nc1` the figure was inactive: 3.07%. With `O=C(NCC1(N2CCOCC2)CCCCC1)c1cc2ccccc2o1` the figure was inactive: 6.4%. With `COc1ccc(Cl)cc1C(=O)NCC1(N2CCOCC2)CCCCC1`, the activation is inactive: 0.88%. To `O=c1[nH]c2ccccc2n1C1CCN(C(c2cc3ccccc3o2)c2nnnn2C2CCCCC2)CC1` (configuration not stated) belongs inactive: 0.85%. To `O=C(OC1CN2CCC1CC2)C1c2ccccc2Oc2ccccc21` (configuration not stated) belongs inactive: -21.6%; to `N#CC1(Nc2ccccc2)CCN(Cc2ccccc2)CC1`, inactive: 3.55%; to `O=C(NCC1(N2CCCCC2)CCCCC1)c1ccc(Cl)s1`, inactive: -0.18%. To `CCCCn1nnnc1C(c1ccc(OC)cc1)N1CCC(n2c(=O)[nH]c3ccccc32)CC1` (configuration not stated) belongs inactive: -25.8%. As for `CCOC(=O)N1CCC(Nc2ccc(OC)cc2)CC1`, the activation is inactive: 5.9%. To `O=C1CCN(Cc2ccccc2)CC1` belongs inactive: 1.35%. Take `CC(C)(C)n1nnnc1C(c1ccccc1)N1CCC(n2c(=O)[nH]c3ccccc32)CC1` (configuration not stated): the activation was inactive: -6.74%.

As for `CCOc1ccc(C)cc1CN(CCCl)CCCl`, the activation was inactive: -1.6%. To `CCOC(=O)N1CCC(Nc2ccc(F)cc2)CC1` belongs inactive: 5.99%; to `COc1ccc(NC2CCN(CCc3ccccc3)CC2)c(OC)c1`, inactive: 0.93%; to `O=C(NCC1(N2CCCCC2)CCCCC1)c1ccc(F)cc1`, inactive: 0.71%.

For `CCCCOc1ccc(C(=O)NCC2(N3CCOCC3)CCCCC2)cc1`, the activation was inactive: 2.93%. To `O=P1(N(CCCl)CCCl)SCCCS1` belongs inactive: 0.47%. With `CCCCn1nnnc1C(c1cc2ccccc2o1)N1CCC(n2c(=O)[nH]c3ccccc32)CC1` (configuration not stated) the figure was inactive: 1.2%; with `O=c1[nH]c2ccccc2n1C1CCN(C(c2ccccc2)c2nnnn2C2CCCCC2)CC1` (configuration not stated), inactive: 1.95%.

On to `COc1cc(C(=O)NCC2(N(C)C)CCCCC2)ccc1OC(F)F`, for which the activation is inactive: 6.19%. To `CCOC(=O)N1CCC(Nc2cccc(C)c2)CC1` belongs inactive: 12.9%. To `O=c1[nH]c2ccccc2n1C1CCN(C(c2cccc3ccccc23)c2nnnn2C2CCCC2)CC1` (configuration not stated) belongs inactive: 4.18%.
